From ChEMBL document CHEMBL4354812, “N-Benzyl/Aryl Substituted Tryptanthrin as Dual Inhibitors of Indoleamine 2,3-Dioxygenase and Tryptophan 2,3-Dioxygenase” (J Med Chem, 2019) come the findings set out here.

Chains of the proteins cited; added tags and fusions are not shown.
UniProt P14902, whole entry, looked up: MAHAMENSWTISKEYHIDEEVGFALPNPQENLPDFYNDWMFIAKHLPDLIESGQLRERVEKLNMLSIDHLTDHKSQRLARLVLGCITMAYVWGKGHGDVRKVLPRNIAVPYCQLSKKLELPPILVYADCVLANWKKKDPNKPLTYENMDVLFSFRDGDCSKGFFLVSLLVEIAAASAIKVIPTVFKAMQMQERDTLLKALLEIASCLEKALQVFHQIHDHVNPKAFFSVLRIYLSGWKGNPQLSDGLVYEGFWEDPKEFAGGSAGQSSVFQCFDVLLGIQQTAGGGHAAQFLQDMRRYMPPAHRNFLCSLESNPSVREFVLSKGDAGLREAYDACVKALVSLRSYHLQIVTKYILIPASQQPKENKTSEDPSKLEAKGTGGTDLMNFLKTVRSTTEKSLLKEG

Molecules are shown by their SMILES. Active and inactive are the calls of the source. The calls are words filed in the database; no cut-off is given here.

In the experiment the target is Indoleamine 2,3-dioxygenase 1 (Homo sapiens, UniProt P14902). Put plainly: Binding affinity to heme in human IDO1 assessed as Soret band red shift from 405 nm to […] at 375 uM and pH 6.5 under normal atmospheric condition by UV-vis spectroscopy analysis.

Consider `CN1CCN(Cc2ccc3nc4n(c(=O)c3c2)-c2ccc(F)cc2C4=O)CC1`, for which the outcome was inactive.
